Sequences of proteins named here, by UniProt entry; tags and fusion partners are left off.
UniProt P31390, whole entry: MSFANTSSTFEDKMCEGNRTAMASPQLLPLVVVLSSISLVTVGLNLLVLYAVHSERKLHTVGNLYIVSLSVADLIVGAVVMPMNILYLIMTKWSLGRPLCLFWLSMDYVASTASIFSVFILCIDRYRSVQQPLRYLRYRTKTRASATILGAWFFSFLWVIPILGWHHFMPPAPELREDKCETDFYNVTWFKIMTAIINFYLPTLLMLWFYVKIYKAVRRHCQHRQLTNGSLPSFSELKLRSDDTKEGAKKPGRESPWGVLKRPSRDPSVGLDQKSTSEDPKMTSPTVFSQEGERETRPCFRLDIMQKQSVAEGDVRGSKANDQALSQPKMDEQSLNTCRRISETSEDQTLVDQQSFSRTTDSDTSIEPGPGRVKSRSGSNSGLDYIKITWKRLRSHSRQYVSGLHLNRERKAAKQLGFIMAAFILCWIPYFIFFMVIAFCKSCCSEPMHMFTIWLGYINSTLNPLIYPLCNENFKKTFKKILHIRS

According to patent publication US5006522A, “Condensed diazepinones, processes for preparing them and pharmaceutical compositions containing these compounds” (Karl Thomae GmbH, priority 1988, dated 1991):

How the values were obtained:
[1] = target: muscarinic receptors (cerebral cortex); test: Binding to muscarinic receptors, 3H-NMS displacement, cerebral cortex; parameters: species or system rat (male Sprague-Dawley); settings: 0.3 nM 3H-NMS, 30° C., 45 min, pH 7.4; read-out: IC50 receptor binding test, Cortex (C)
histamine-H1 receptor = target: T1, histamine-H1 receptor (Rattus norvegicus, UniProt P31390); test: Binding to the histamine-H1 receptor (3H-pyrilamine); settings: 2 nM 3H-pyrilamine, ambient temperature, 60 min, whole rat brain without cerebellum
T1 construct: whole rat brains were used without the cerebellum; from tissue; host or cells: membranes of whole rat brain without cerebellum

SMILES | IC50 [1] | IC50 (histamine-H1 receptor)
CCN(CC)CC1CCCCN1CC(=O)N1c2ccccc2C(=O)Nc2cccnc21 (centres unmarked) [D, 11-[[2-[(diethylamino)methyl]-1-piperidinyl]acetyl]-5,11-dihydro-6H-pyrido[2,3-b][1,4]benzodiazepin-6-one, reference compound] | 1.2 µM | –
COc1ccc(CN(CCN(C)C)c2ccccn2)cc1 [Pyrilamine, reference compound] | – | 0.007 µM
